# In PubChem BioAssay (NCI):
#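 The compound was tested at five concentrations on cells cultured in 96-well plates, with a 48-hour exposure period. GI50 marks 50% less growth. TGI: total growth inhibition.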
# What was measured:
# Test in all cases: NCI anticancer screen, dose series, 48 h
# HCC-2998 colon = system: HCC-2998 colon
# MCF7 breast = system: MCF7 breast
# SN12C renal = system: SN12C renal
# NCI-H460 lung = system: NCI-H460 lung
# UACC-257 melanoma = system: UACC-257 melanoma
# K-562 leukemia = system: K-562 leukemia
# M14 melanoma = system: M14 melanoma
# SW-620 colon = system: SW-620 colon
# COLO 205 colon = system: COLO 205 colon
# PC-3 prostate = system: PC-3 prostate
# SR leukemia = system: SR leukemia
# MOLT-4 leukemia = system: MOLT-4 leukemia
# EKVX NSCLC = system: EKVX NSCLC
# KM12 colon = system: KM12 colon
# MDA-MB-231 breast = system: MDA-MB-231 breast
# MALME-3M melanoma = system: MALME-3M melanoma
# CCRF-CEM leukemia = system: CCRF-CEM leukemia
# NCI-H23 lung = system: NCI-H23 lung
# U251 CNS = system: U251 CNS
# HL-60(TB) leukemia = system: HL-60(TB) leukemia
# BT-549 breast = system: BT-549 breast
# NCI/ADR-RES ovarian = system: NCI/ADR-RES ovarian
# MDA-MB-435 = system: MDA-MB-435
# SNB-75 CNS = system: SNB-75 CNS
# RPMI-8226 leukemia = system: RPMI-8226 leukemia
# OVCAR-3 ovarian = system: OVCAR-3 ovarian
# A549 NSCLC = system: A549 NSCLC
# SK-MEL-2 melanoma = system: SK-MEL-2 melanoma
# T-47D breast = system: T-47D breast
# NCI-H226 lung = system: NCI-H226 lung
# TK-10 renal = system: TK-10 renal
# HOP-62 NSCLC = system: HOP-62 NSCLC
# RXF 393 renal = system: RXF 393 renal
# IGROV1 ovarian = system: IGROV1 ovarian
# DU-145 prostate = system: DU-145 prostate
# OVCAR-4 ovarian = system: OVCAR-4 ovarian
# HCT-116 colon = system: HCT-116 colon
# ACHN renal = system: ACHN renal
# UACC-62 melanoma = system: UACC-62 melanoma
# OVCAR-8 ovarian = system: OVCAR-8 ovarian
# HT29 colon = system: HT29 colon
# NCI-H522 lung = system: NCI-H522 lung
# SNB-19 CNS = system: SNB-19 CNS
# OVCAR-5 ovarian = system: OVCAR-5 ovarian
# SK-OV-3 ovarian = system: SK-OV-3 ovarian
# NCI-H322M lung = system: NCI-H322M lung
# CAKI-1 renal = system: CAKI-1 renal
# HS 578T breast = system: HS 578T breast
# SK-MEL-5 melanoma = system: SK-MEL-5 melanoma
# 786-0 renal = system: 786-0 renal
# SF-268 CNS = system: SF-268 CNS
# A498 renal = system: A498 renal
# HOP-92 NSCLC = system: HOP-92 NSCLC
# LOX IMVI melanoma = system: LOX IMVI melanoma
# SF-295 CNS = system: SF-295 CNS
# SK-MEL-28 melanoma = system: SK-MEL-28 melanoma
# UO-31 renal = system: UO-31 renal
# HCT-15 colon = system: HCT-15 colon
# SF-539 CNS = system: SF-539 CNS
structure (smiles),measurement,setting,value
NC(Cc1ccccc1N(CCCl)CCCl)C(=O)O (stereo not drawn),GI50,HCC-2998 colon,32.4 µM
same,TGI,HCC-2998 colon,> 100 µM
same,GI50,MCF7 breast,3.08 µM
same,TGI,MCF7 breast,> 100 µM
same,GI50,SN12C renal,5.8 µM
same,TGI,SN12C renal,> 100 µM
same,GI50,NCI-H460 lung,2.18 µM
same,TGI,NCI-H460 lung,> 100 µM
same,GI50,UACC-257 melanoma,68.7 µM
same,TGI,UACC-257 melanoma,> 100 µM
same,GI50,K-562 leukemia,29.1 µM
same,TGI,K-562 leukemia,> 100 µM
same,GI50,M14 melanoma,16.1 µM
same,TGI,M14 melanoma,> 100 µM
same,GI50,SW-620 colon,16.3 µM
same,TGI,SW-620 colon,> 100 µM
same,GI50,COLO 205 colon,30.7 µM
same,TGI,COLO 205 colon,> 100 µM
same,GI50,PC-3 prostate,86.9 µM
same,TGI,PC-3 prostate,> 100 µM
same,GI50,SR leukemia,4.65 µM
same,TGI,SR leukemia,> 100 µM
same,GI50,MOLT-4 leukemia,3.38 µM
same,TGI,MOLT-4 leukemia,80 µM
same,GI50,EKVX NSCLC,66.2 µM
same,TGI,EKVX NSCLC,> 100 µM
same,GI50,KM12 colon,74.7 µM
same,TGI,KM12 colon,> 100 µM
same,GI50,MDA-MB-231 breast,> 100 µM
same,TGI,MDA-MB-231 breast,> 100 µM
same,GI50,MALME-3M melanoma,31.7 µM
same,TGI,MALME-3M melanoma,> 100 µM
same,GI50,CCRF-CEM leukemia,1.35 µM
same,TGI,CCRF-CEM leukemia,> 100 µM
same,GI50,NCI-H23 lung,23.3 µM
same,TGI,NCI-H23 lung,> 100 µM
same,GI50,U251 CNS,12.6 µM
same,TGI,U251 CNS,> 100 µM
same,GI50,HL-60(TB) leukemia,1.67 µM
same,TGI,HL-60(TB) leukemia,11.5 µM
same,GI50,BT-549 breast,31 µM
same,TGI,BT-549 breast,> 100 µM
same,GI50,NCI/ADR-RES ovarian,30.3 µM
same,TGI,NCI/ADR-RES ovarian,> 100 µM
same,GI50,MDA-MB-435,> 100 µM
same,TGI,MDA-MB-435,> 100 µM
same,GI50,SNB-75 CNS,9.49 µM
same,TGI,SNB-75 CNS,> 100 µM
same,GI50,RPMI-8226 leukemia,30 µM
same,TGI,RPMI-8226 leukemia,86.7 µM
same,GI50,OVCAR-3 ovarian,23.1 µM
same,TGI,OVCAR-3 ovarian,83.5 µM
same,GI50,A549 NSCLC,47.6 µM
same,TGI,A549 NSCLC,> 100 µM
same,GI50,SK-MEL-2 melanoma,95.9 µM
same,TGI,SK-MEL-2 melanoma,> 100 µM
same,GI50,T-47D breast,10.4 µM
same,TGI,T-47D breast,> 100 µM
same,GI50,NCI-H226 lung,> 100 µM
same,TGI,NCI-H226 lung,> 100 µM
same,GI50,TK-10 renal,> 100 µM
same,TGI,TK-10 renal,> 100 µM
same,GI50,HOP-62 NSCLC,48.9 µM
same,TGI,HOP-62 NSCLC,> 100 µM
same,GI50,RXF 393 renal,38.6 µM
same,TGI,RXF 393 renal,> 100 µM
same,GI50,IGROV1 ovarian,17.9 µM
same,TGI,IGROV1 ovarian,> 100 µM
same,GI50,DU-145 prostate,7.03 µM
same,TGI,DU-145 prostate,96.6 µM
same,GI50,OVCAR-4 ovarian,> 100 µM
same,TGI,OVCAR-4 ovarian,> 100 µM
same,GI50,HCT-116 colon,30.8 µM
same,TGI,HCT-116 colon,> 100 µM
same,GI50,ACHN renal,4.77 µM
same,TGI,ACHN renal,> 100 µM
same,GI50,UACC-62 melanoma,6.2 µM
same,TGI,UACC-62 melanoma,> 100 µM
same,GI50,OVCAR-8 ovarian,47.7 µM
same,TGI,OVCAR-8 ovarian,> 100 µM
same,GI50,HT29 colon,77.3 µM
same,TGI,HT29 colon,> 100 µM
same,GI50,NCI-H522 lung,18.7 µM
same,TGI,NCI-H522 lung,> 100 µM
same,GI50,SNB-19 CNS,15.3 µM
same,TGI,SNB-19 CNS,> 100 µM
same,GI50,OVCAR-5 ovarian,83.2 µM
same,TGI,OVCAR-5 ovarian,> 100 µM
same,GI50,SK-OV-3 ovarian,20.7 µM
same,TGI,SK-OV-3 ovarian,> 100 µM
same,GI50,NCI-H322M lung,> 100 µM
same,TGI,NCI-H322M lung,> 100 µM
same,GI50,CAKI-1 renal,5.21 µM
same,TGI,CAKI-1 renal,> 100 µM
same,GI50,HS 578T breast,78.4 µM
same,TGI,HS 578T breast,> 100 µM
same,GI50,SK-MEL-5 melanoma,61.1 µM
same,TGI,SK-MEL-5 melanoma,> 100 µM
same,GI50,786-0 renal,12.3 µM
same,TGI,786-0 renal,58.4 µM
same,GI50,SF-268 CNS,5.67 µM
same,TGI,SF-268 CNS,> 100 µM
same,GI50,A498 renal,72.5 µM
same,TGI,A498 renal,> 100 µM
same,GI50,HOP-92 NSCLC,33.1 µM
same,TGI,HOP-92 NSCLC,> 100 µM
same,GI50,LOX IMVI melanoma,10.2 µM
same,TGI,LOX IMVI melanoma,> 100 µM
same,GI50,SF-295 CNS,3.34 µM
same,TGI,SF-295 CNS,> 100 µM
same,GI50,SK-MEL-28 melanoma,38.8 µM
same,TGI,SK-MEL-28 melanoma,> 100 µM
same,GI50,UO-31 renal,12.6 µM
same,TGI,UO-31 renal,> 100 µM
same,GI50,HCT-15 colon,28.5 µM
same,TGI,HCT-15 colon,> 100 µM
same,GI50,SF-539 CNS,4.82 µM
same,TGI,SF-539 CNS,68.9 µM
